From PubChem
HDAC3 inhib: blocks human histone deacetylase 3. O15379. recombinant HDAC3, fluorogenic peptide/trypsin coupled, fluorescence. inhibition, % at 8.3 µM. hit rate 0.15% among 320,000; in the data active = inhibition above about 26%, passing the limit was not always enough; inconclusive = no clear call, values can overlap the other calls
NALP1 inh: inhibitors of NALP1 inflammasome in yeast; AID 2071; S. cerevisiae NALP1/ASC/caspase-1 growth, X-gal OD620, 72 h; inhibition, % at 10 µM; hit rate 0.61% among 280,000; in the data active = inhibition mostly above about 24%, no sharp cut-off; inactive = mostly below about 32%
ALR H2O2 inh: blocks human ALR sulfhydryl oxidase activity | inhibition, % (test concentration not listed) | 3.8% of 290,000 active | AID 485317 | purified ALR, DTT oxidation, H2O2 HRP-luminol luminescence | P55789;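 active means mean and each replicate at 75% or more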;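 further: stock transfer was 7.5 nL into about 7.5 µL; 0% = neutral wells and 100% = wells with inactivated enzyme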
MC4R antag cAMP: human MC4R antagonism in cAMP assay; P32245; MC4R-expressing cells, MTII-stimulated cAMP, LANCE TR-FRET; inhibition, % at 6.5 µM; hit rate 0.48% among 360,000;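 active = inhibition above its plate's cutoff, the mean of tested wells on that plate plus 3 SD, cut at about 29% in these data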;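 also: 0% = Melanotan II alone and 100% = Melanotan II plus saturating MCL0020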
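system = U2OS cells with stable human MC4R expression | also added = Melanotan II challenge after compound preincubation | dosing = one concentration, 6.5 µM nominal | incubation = compound 30 min, challenge 1 h, detection 1 h | measured by = TR-FRET with Eu-cAMP and labeled anti-cAMP, 671 nm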
Yeast UUG start: alters start codon recognition fidelity in yeast; AID 602363; activity score, % at 18.7 µM; 350,000 tested, 0.13% active; S. cerevisiae UUG-firefly luciferase reporter, luminescence/redox ratio;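 active means replicate mean at a twofold rise or more, about +100% in these data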;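 further: firefly luciferase made from a UUG start codon reports start codon fidelity; reporter light over untreated wells divided by growth signal over untreated wells; some hits fall short of that in this replicate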
MC4R barr agon: activates human MC4R beta-arrestin recruitment; U2OS MC4R beta-arrestin complementation, luminescence; percent of melanotan II response, DMSO zero; activation, % at 8.9 µM; hit rate 0.98% among 360,000; P32245;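 active = activation above a per-plate cutoff, the mean activation of sample wells on that plate plus 3 SD, cut at about 8% in these data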
Starred values were filed as active, the others as inactive; u = inconclusive; x = no result given. Rows were chosen to be rich in hits. Some 4.2% of all compounds tested hit in one or more screens of this group.

Abbreviations: A = HDAC3 inhib; B = NALP1 inh; C = ALR H2O2 inh; D = MC4R antag cAMP; E = Yeast UUG start; F = MC4R barr agon
O=C1NCCC/C1=N\Nc1ccc(Br)cc1
  A = 8; B = -31; C = 99*; D = -2; E = x; F = -1
Cc1ccccc1N/N=C1\CCCNC1=O
  A = 5; B = 19; C = 34; D = 1; E = -15; F = -1
COc1c(Cl)cc(-c2noc(C)c2C(=O)NC(C)C)cc1Cl
  A = 5; B = 31; C = 93*; D = 2; E = -7; F = 2
C[C@@H]1CN([C@H](C)CO)S(=O)(=O)c2ccc(C#CC3CCCC3)cc2O[C@H]1CN(C)Cc1cccnc1
  A = x; B = x; C = x; D = x; E = 10; F = x
C[C@H]1CN([C@@H](C)CO)S(=O)(=O)c2ccc(C3=CCCC3)cc2O[C@@H]1CN(C)C(=O)c1ccccn1
  A = x; B = x; C = x; D = x; E = -7; F = x
Cc1nc2ccccc2c(=O)n1/N=C/c1cn[nH]c1-c1ccccc1
  A = 7; B = 41*; C = -12; D = -5; E = -17; F = -1
CCN(CC)S(=O)(=O)c1ccc(NC(=O)c2c(-c3ccccc3)noc2C)cc1
  A = 0; B = 27; C = 93*; D = 1; E = -19; F = -1
CCNS(=O)(=O)c1ccc(NC(=O)c2c(-c3ccccc3)noc2C)cc1
  A = -3; B = 6; C = -9; D = -1; E = x; F = -1
CCC(CC)c1nnc(NC(=O)c2c(-c3ccccc3)noc2C)s1
  A = 0; B = -1; C = 78*; D = 5; E = -10; F = 0
Nc1ccc(C(=O)OCCCc2nc3ccccc3[nH]2)cc1
  A = 3; B = 20; C = -2; D = -7; E = -3; F = -4
Nc1ccc2nc(CCCO)[nH]c2c1
  A = 10; B = x; C = 99*; D = 16; E = -19; F = 0
Nc1ccc2nc(CCCCCCCCc3nc4ccc(N)cc4[nH]3)[nH]c2c1
  A = 0; B = 10; C = 96*; D = -7; E = x; F = 0
Nc1ccc2nc(CCCCc3nc4ccccc4[nH]3)[nH]c2c1
  A = 14; B = -2; C = 100*; D = 2; E = 16; F = 0
COC(=O)c1ccc(C(=O)OCCCc2nc3ccc(N)cc3[nH]2)cc1
  A = 9; B = 0; C = 90*; D = -2; E = -14; F = -1
Nc1ccc2nc(CCCCCCc3nc4ccc(N)cc4[nH]3)[nH]c2c1
  A = 3; B = 3; C = 57; D = 0; E = -6; F = 0
Nc1ccc2nc(COc3ccccc3)[nH]c2c1
  A = 6; B = 5; C = 91*; D = 5; E = -7; F = -1
COc1ccccc1N1CCN(C(=O)Cc2ccc(Cl)cc2)CC1
  A = -1; B = -6; C = x; D = 19; E = -64; F = 1
COc1cccc(N2CCN(C(=O)CCSCc3ccccc3F)CC2)c1
  A = 3; B = -5; C = 97*; D = 20; E = x; F = 0
COc1ccccc1N1CCN(C(=O)CCN2C(=O)c3cccc4cccc(c34)C2=O)CC1
  A = -3; B = 45*; C = 0; D = 1; E = x; F = -2
COc1ccccc1N1CCN(C(=O)CCSCc2ccccc2F)CC1
  A = -1; B = -6; C = 96*; D = -3; E = x; F = 3
O=C(C[C@H]1CC[C@@H](NC(=O)Cc2ccccn2)[C@H](CO)O1)NCCCN1CCOCC1
  A = x; B = x; C = x; D = x; E = -17; F = x
COc1ccccc1-n1c(SCC(=O)Nc2ccccc2C)nc(O)cc1=O
  A = 5; B = -4; C = 10; D = 6; E = -6; F = -2
Cc1ccccc1NC(=O)CSc1nc(O)cc(=O)n1C
  A = 3; B = x; C = 99*; D = -1; E = 2; F = 2
COc1ccc(-n2c(Cc3cccn3C)nnc2SCC(=O)Nc2cccc(C)c2C)cc1
  A = -1; B = 15; C = 89*; D = 1; E = -12; F = 1
Cc1c(O)nc(SCC(=O)Nc2nccs2)n(-c2ccccc2F)c1=O
  A = 1; B = 41*; C = 99*; D = 0; E = 2; F = -2
CCCCc1nnc(NC(=O)CSc2nc(=O)cc(N)n2-c2cccc(C)c2)s1
  A = u; B = 16; C = 98*; D = -3; E = -16; F = 0
Cc1cccc(-n2c(N)cc(=O)nc2SCC(=O)Nc2nnc(CC(C)C)s2)c1
  A = x; B = -2; C = x; D = x; E = x; F = x
Cc1nnc(SCC(=O)Nc2nccs2)n(N)c1=O
  A = -6; B = 19; C = 24; D = 1; E = x; F = -1
C[C@H]1CN([C@@H](C)CO)C(=O)c2cccc(NC(=O)Nc3ccc(C(F)(F)F)cc3)c2O[C@H]1CN(C)Cc1ccc2c(c1)OCO2
  A = x; B = x; C = x; D = x; E = 6; F = x
Cc1ccc(-c2cnc3c(c2)C(=O)N([C@@H](C)CO)C[C@H](C)[C@@H](CN(C)C(=O)c2cccc(F)c2)O3)cc1
  A = x; B = x; C = x; D = x; E = 13; F = x
COc1ccc(NC(=O)CSc2nc(O)cc(=O)n2-c2ccc(OC)cc2)cc1
  A = 1; B = 4; C = 99*; D = 4; E = x; F = 0
COCCn1c(-c2ccccc2)cnc1SCC(=O)Nc1cccc2ccccc12
  A = -1; B = 74*; C = -8; D = 8; E = 0; F = 1
COc1ccc(-n2c(SCC(=O)Nc3ccc(NC(C)=O)cc3)nc3ccccc3c2=O)cc1
  A = -2; B = 25; C = x; D = 19; E = -8; F = 1
COc1ccc(-n2c(SCC(=O)Nc3ccccc3)nc(O)cc2=O)cc1
  A = 15; B = x; C = 88*; D = 0; E = -20; F = -4
COc1ccc(-n2c(SCC(=O)Nc3cccc4ccccc34)nc(O)cc2=O)cc1
  A = -1; B = -9; C = 99*; D = -3; E = -8; F = -1
CC(C)NC(=O)Nc1ccc2c(c1)C(=O)N([C@H](C)CO)C[C@H](C)[C@H](CN(C)S(=O)(=O)c1ccccc1)O2
  A = x; B = x; C = x; D = x; E = 3; F = x
COC(=O)c1cccc(NC(=O)CSc2nc(=O)cc(N)n2-c2ccccc2)c1
  A = -9; B = 16; C = 98*; D = -2; E = -12; F = -2
O=C(CSc1nc(O)cc(=O)n1-c1ccccc1)c1ccc(Br)cc1
  A = 16; B = 2; C = 98*; D = 3; E = -11; F = -2
Cc1ccc(-n2c(SCC(=O)Nc3ccc4c5c(cccc35)CC4)nc(O)cc2=O)cc1
  A = -2; B = 6; C = x; D = 1; E = x; F = -4
CCOc1ccc(NC(=O)CSc2nc(O)c(C)c(=O)n2-c2ccc(F)cc2)cc1
  A = 0; B = 8; C = 100*; D = 7; E = -6; F = 3
Cc1ccc(-n2c(SCC(=O)Nc3ccc4c5c(cccc35)CC4)nc(O)c(C)c2=O)cc1
  A = 4; B = 16; C = 99*; D = 9; E = x; F = -2
O=c1cc(O)nc(SCc2ccccc2)n1-c1ccccc1
  A = 3; B = 21; C = 38; D = 2; E = -5; F = -1
Cc1ccc(S(=O)(=O)N2CC[C@H]3[C@H](CO)Nc4ccc(C#Cc5ccc(F)cc5)cc4[C@H]32)cc1
  A = x; B = x; C = x; D = x; E = -1; F = x
CCCC#Cc1ccc2c(c1)O[C@H](CN(C)CCC)[C@@H](C)CN([C@H](C)CO)S2(=O)=O
  A = x; B = x; C = x; D = x; E = 10; F = x
CO[C@@H]1CN(C)C(=O)c2cc(NC(=O)C3CC3)ccc2OC[C@@H](C)N(Cc2ccccc2)C[C@@H]1C
  A = x; B = x; C = x; D = x; E = -10; F = x

Single records (already shown).
Shown for CCN(CC)S(=O)(=O)c1ccc(NC(=O)c2c(-c3ccccc3)noc2C)cc1 → HDAC3 inhib: 0; NALP1 inh: 27; ALR H2O2 inh: 93*; MC4R antag cAMP: 1; Yeast UUG start: -19; MC4R barr agon: -1
Shown for COc1ccc(-n2c(SCC(=O)Nc3ccccc3)nc(O)cc2=O)cc1 → HDAC3 inhib: 15; NALP1 inh: x; ALR H2O2 inh: 88*; MC4R antag cAMP: 0; Yeast UUG start: -20; MC4R barr agon: -4

Further records follow:
Abbreviations: A = HDAC3 inhib; B = NALP1 inh; C = ALR H2O2 inh; D = MC4R antag cAMP; E = Yeast UUG start; F = MC4R barr agon
C[C@H](CO)N1C[C@H](C)[C@H](CN(C)Cc2ccncc2)Oc2cc(C3=CCCC3)ccc2S1(=O)=O
  A = x; B = x; C = x; D = x; E = 7; F = x
CCCNC(=O)N1[C@@H]2CN(C(=O)c3ccccc3)c3ccccc3[C@@H]2[C@@H]1CO
  A = x; B = x; C = x; D = x; E = 6; F = x
CC(C)COc1ccc(N)cc1OCC(C)C
  A = 2; B = 10; C = 99*; D = 18; E = x; F = -1
Nc1c(S(=O)(=O)c2cccs2)c2nc3ccccc3nc2n1/N=C/c1cccc(O)c1
  A = -7; B = 12; C = -12; D = 17; E = 0; F = 8.4*
Cc1ccc(-c2nn(-c3ccccc3)cc2CNCc2ccccc2)cc1
  A = 5; B = 21; C = -5; D = 0; E = x; F = 9.5*
CCN(CCNS(=O)(=O)c1ccc2[nH]c(=O)sc2c1)c1ccccc1
  A = x; B = 28; C = 98*; D = 16; E = -9; F = 1
